# According to PubChem BioAssay AID493056 (National Center for Advancing Translational Sciences (NCATS), 2011):
# Amino acid sequences for entries named in this document (tags omitted).
# UniProt P34981, whole entry: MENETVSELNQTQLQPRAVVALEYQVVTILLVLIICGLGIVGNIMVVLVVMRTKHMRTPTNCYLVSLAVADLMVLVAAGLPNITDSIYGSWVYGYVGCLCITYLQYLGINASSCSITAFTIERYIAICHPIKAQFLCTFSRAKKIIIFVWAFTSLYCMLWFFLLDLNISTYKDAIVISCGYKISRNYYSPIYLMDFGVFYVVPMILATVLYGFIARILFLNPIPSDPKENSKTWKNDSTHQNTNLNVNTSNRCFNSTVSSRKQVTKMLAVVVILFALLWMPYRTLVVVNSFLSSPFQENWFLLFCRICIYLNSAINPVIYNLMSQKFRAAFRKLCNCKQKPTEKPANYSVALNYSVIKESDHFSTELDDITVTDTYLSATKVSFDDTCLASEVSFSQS
# “And” between values parts separate entries of the source, which are not always exact repeats. Equal entries are not always repeated. The entries are a selection whose mix differs from that of the whole data set. Some of these compounds have results that are not shown, active ones among them. The source made the active and inactive calls. No stated cut-off is given here; in the data, active means enhancement above about 30%; inactive means the rest.
# Biological target: Thyrotropin-releasing hormone receptor (Homo sapiens) (UniProt P34981)
# Assay: qHTS for Small Molecule Agonists and Allosteric Enhancers of Human TRH Receptor: Primary Screen for Enhancers; further: 0% is about no effect
# Settings: TRHR cells, fluo-8 calcium fluorescence, EC20 TRH enhancement; at 2 µM; stronger effect = higher value
# Source text: NIH Chemical Genomics Center [NCGC] NIH Molecular Libraries Probe Centers Network [MLPCN] MLPCN Grant: MH089816-01 Assay Submitter (PI): Marvin Gershengorn This project aims to identify small drug-like molecules that activate (agonists) the thyrotropin releasing hormone (TRH) receptor (TRHR) or enhance its TRH-stimulated activity (allosteric enhancers). TRHR, a drug-accessible cell surface receptor expressed in specific brain regions, and its ligand TRH have been implicated in several central nervous system disorders, including depression and anxiety. Small molecule TRHR agonists or allosteric enhancers that are metabolically stable and able to cross the blood-brain barrier might serve as probes to elucidate the roles of brain TRH receptors in animal models, and might be valuable as lead compounds for the development of drugs to treat patients with central nervous system disorders. Upon TRHR-Gq activation in TRHR cells, intracellular calcium is released from stores in the endoplasmic reticulum. […] This primary screen measures compound-induced enhancement of an EC20 stimulation of the receptor by its native ligand.
# For the HTS assay freshly prepared cells are plated at a density of 2000/well in 3 ul of complete DMEM medium containing 10% serum in 1536-well plates and cultured over night at 37 C in a humidified incubator with 5% CO2. The next day, 2 ul of a no wash calcium dye (ABD Bioquest) was added to the cells and plates were incubated at room temperature for 1 hour. For the assay, assay plates were loaded into the FDSS kinetic plate reader. A 10 cycle (1 second/cycle) baseline measurement is taken and then the FDSS online 1536 pintool delivers 23 nl of compound library (as well as TRH controls) to the plate. The plate is measured for kinetically at 1 cycle/sec for 180 seconds and is considered to be the agonist portion of the assay (eg, compounds which activate a positive calcium response during this portion are flagged as potential agonists). Following the 180 second read, 1 ul of either an EC20 (positive modulation assay) is delivered by an onboard pipette head. Measurements are taken kinetically for an additional 180 seconds. TRHR FDSS Screening Protocol 1. Reagent, 3 uL 2000 cells/well 1536 TC treated Black plate in media containing 10% FCS 2. Time, 18 hours, 33.5C 5% CO2 (cells grown at 37C) 3. Reagent, 2 uL ABD fluo-8 Ca dye 4. Time, 30 min-1.5hrs hours, Room temp (6 plates/batch) 5. Detector, EX 480/EM 530C, FDSS 10 cycles baseline (1sec/cycle) 6. Compound, 23 nL of stock solution from library 7. Detector, EX 480/EM 530C, FDSS 230 cycles (1sec/cycle) Agonist mode 8. Compound, 1 ul EC20 of TRH made up in HEPES HBSS, 10 nM final 9. Detector, EX 480/EM 530C, FDSS 100 cycles (1sec/cycle) Potentiator mode
row,Compound,enhancement
1,COc1cccc(C(=O)NCC2(N3CCCCC3)CCCCC2)c1,inactive: 3.05%
2,COc1ccc(Cl)cc1C(=O)NCC1(N(C)C)CCCCC1,inactive: 8.11%
3,O=C(NCC1(N2CCCCC2)CCCCC1)c1cccc(Cl)c1,inactive: -8.6%
4,CN(C)C1(CNC(=O)c2ccc(Br)cc2)CCCCC1,inactive: 7.11%
5,COc1cc(C(=O)NCC2(N(C)C)CCCCC2)c([N+](=O)[O-])cc1OC,inactive: 2.15%
6,Cc1cccc(C(=O)NCC2(N(C)C)CCCCC2)c1,inactive: 13.4%
7,COc1cc(C(=O)NCC2(N(C)C)CCCCC2)cc(OC)c1OC,inactive: 19%
8,COc1ccc(Br)c(C(=O)NCC2(N3CCCCC3)CCCCC2)c1,inactive: -4.43%
9,CC(C)Oc1ccc(C(=O)NCC2(N(C)C)CCCCC2)cc1,inactive: 4.47% and inactive: 4.92%
10,CN(C)c1cccc(C(=O)NCC2(N(C)C)CCCCC2)c1,inactive: 0.0018%
11,COc1cccc(C(=O)NCC2(N3CCOCC3)CCCCC2)c1,inactive: -5.91%
12,O=C(OC1CN2CCC1CC2)C(CO)(c1ccccc1)c1ccccc1 (stereo not drawn),inactive: 7.64%
13,CC(C)COc1ccc(C(=O)NCC2(N(C)C)CCCCC2)cc1,inactive: 8%
14,CN(C)C1(CNC(=O)c2cccc(Cl)c2)CCCCC1,inactive: -2.38%
15,CCN(CC)CC(C)C(C)OC(=O)C(O)(c1ccccc1)c1ccccc1 (stereo not drawn),inactive: -0.146%
16,COc1cc(SC)ccc1C(=O)NCC1(N(C)C)CCCCC1,inactive: 0.741%
17,CC(C)N1C(=O)CC2(CCN(CCOC(=O)C(O)(c3ccccc3)c3ccccc3)CC2)C1=O,inactive: 1.62%

row,Compound,enhancement
1,Cc1ccc(C(=O)NCC2(N3CCCCC3)CCCCC2)cc1,inactive: -9%
2,CN(C)C1(CNC(=O)c2ccccc2F)CCCCC1,inactive: -5.56%
3,O=C(NCC1(N2CCCCC2)CCCCC1)c1cc([N+](=O)[O-])ccc1Cl,inactive: -7.83%
4,CN1[C@@H]2CC[C@H]1CC(OC(=O)C(O)(c1ccccc1)c1ccccc1)C2 (stereo partly drawn),inactive: 6.2%
5,C=CCN1CCN(CCOC(=O)C(O)(c2ccccc2)c2ccccc2)CC1,inactive: 0.661%
6,O=C(NCC1(N2CCCCC2)CCCCC1)c1cc(F)c(F)cc1Cl,inactive: -4.94%
7,COc1ccc(C(=O)NCC2(N(C)C)CCCCC2)cc1,inactive: 5.8%
8,CCOc1cccc(C(=O)NCC2(N(C)C)CCCCC2)c1,inactive: 2.97%
9,Cc1cc(C(=O)NCC2(N3CCCCC3)CCCCC2)ccc1[N+](=O)[O-],inactive: -6.14%
10,CCN1CCCC(OC(=O)C2(O)c3ccccc3C=Cc3ccccc32)C1 (stereo not drawn),inactive: -5.55%
11,O=C(NCC1(N2CCCCC2)CCCCC1)c1cccc(Br)c1,inactive: -9.03%
12,CN(C)C1(CNC(=O)c2ccccc2[N+](=O)[O-])CCCCC1,inactive: 0.416%
13,Cc1ccccc1C(=O)NCC1(N2CCCCC2)CCCCC1,inactive: -4.75%
14,CN(C)C1CCCC1OC(=O)C(O)(c1ccccc1)c1ccccc1 (stereo not drawn),inactive: -5.45%
15,CN(C)c1ccc(C(=O)NCC2(N(C)C)CCCCC2)cc1,inactive: 7.35%
16,CCCCOc1ccccc1C(=O)NCC1(N(C)C)CCCCC1,inactive: 4.93%
